For this assay, the target named is rat GLP-1-R (rat) (UniProt P32301). As to the kind of experiment: cell-based or functional assay.

As to Semaglutide (peptide), the EC50 (nM), cAMP production in INS1 832-3 cells is 5.8 nM.

Source of the values: patent US20160368960A1.
